Protein sequences, listed by entry. Tags and fused reporters are not part of them. Lines headed by an entry give the natural chain unless they say otherwise; changes in a name come on top.
UniProt P41146: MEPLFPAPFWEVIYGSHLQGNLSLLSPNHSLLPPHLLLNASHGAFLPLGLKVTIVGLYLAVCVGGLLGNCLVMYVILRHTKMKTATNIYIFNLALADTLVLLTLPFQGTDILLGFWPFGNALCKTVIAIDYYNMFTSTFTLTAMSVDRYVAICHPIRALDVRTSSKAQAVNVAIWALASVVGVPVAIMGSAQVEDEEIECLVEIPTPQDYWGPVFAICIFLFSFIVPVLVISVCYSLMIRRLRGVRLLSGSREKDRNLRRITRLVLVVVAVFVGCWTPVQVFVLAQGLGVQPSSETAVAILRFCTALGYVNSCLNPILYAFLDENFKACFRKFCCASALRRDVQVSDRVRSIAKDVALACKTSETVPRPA
UniProt P35372, whole entry, looked up: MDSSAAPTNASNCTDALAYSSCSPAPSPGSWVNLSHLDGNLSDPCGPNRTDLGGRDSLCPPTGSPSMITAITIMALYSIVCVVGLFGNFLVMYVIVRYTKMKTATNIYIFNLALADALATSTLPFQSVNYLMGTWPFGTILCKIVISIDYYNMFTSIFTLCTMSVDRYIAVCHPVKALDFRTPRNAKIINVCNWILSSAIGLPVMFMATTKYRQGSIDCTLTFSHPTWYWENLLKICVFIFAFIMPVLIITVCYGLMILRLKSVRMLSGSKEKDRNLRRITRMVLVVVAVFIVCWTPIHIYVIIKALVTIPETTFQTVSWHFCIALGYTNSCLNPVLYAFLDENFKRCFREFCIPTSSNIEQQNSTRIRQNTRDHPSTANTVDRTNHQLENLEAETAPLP

In patent US8067603B2 (priority 2003, dated 2011):

Assays:
[1] = molecular target: T1, ORL1 receptor (Homo sapiens, UniProt P41146); test: In vitro ORL1 receptor agonism, cAMP assay
[2] = molecular target: T1, ORL1 receptor; test: Affinity for human ORL1 receptors, [3H]-nociceptin binding, CHO-cell membranes; settings: membranes of CHO-cells expressing human ORL1
[3] = molecular target: human μ-opiate receptor (Homo sapiens, UniProt P35372); test: Affinity for human μ-opiate receptors, [3H]-naloxone binding, CHO-cell membranes; settings: membranes of CHO-cells expressing human μ-opiate receptor

## O=c1[nH]c2ccccc2n1C1CCN(C2CCC3CCCc4cccc2c43)C1 (stereo not drawn)
[1]
  In vitro agonism cAMP assay pEC50: 9.1
[2]
  affinity ORL1 pKi: 7.5
[3]
  affinity μ-opi pKi: <6.0
